As a reminder, the inhibition is the percentage by which the read-out fell short of the control.

Structures are written as SMILES. This is a selection; strong and weak results do not stand in their true shares. The source made the active and inactive calls.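 How the source made its calls: active means mean inhibition of replicates at least 50% and at least half of replicates each reaching 50%; inconclusive means half or more replicates reach 50% but mean below 50%; inactive means the rest.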

The target in this assay is Transforming acidic coiled-coil-containing protein 3 (Homo sapiens) (UniProt Q9Y6A5). Briefly: disruptors of ARNT/TACC3 protein interaction, primary screen, biochemical, AlphaScreen, single concentration (AID 623870).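 Further: 0% = complete ARNT plus TACC3 wells and 100% = ARNT alone without TACC3.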 Particulars: AlphaScreen His-ARNT PAS-B/GST-TACC3 binding, luminescence; at 9.99 µM; stronger effect = higher value; TACC3 fragment carries E629A point mutation.
Turning to `CCC(=O)N(c1ccccc1)C1(COC)CCN(CCn2nnn(CC)c2=O)CC1`, the inhibition was inactive: 0.777%. Consider `CCC(=O)N(c1ccccc1)C1(COC)CCN(CCc2cccs2)CC1`, for which the inhibition was inactive: 1.25%.
